Measured values: article PMC3701955 (Bioorganic & medicinal chemistry, 2012)

Type: in vivo
Settings: female Sprague–Dawley rats, iv; for Biodistribution of radioactivity in brain region, Amygdala / Biodistribution of radioactivity in brain region, Basal Hypothalamus / Biodistribution of radioactivity in brain region, Cerebellum / Biodistribution of radioactivity in brain region, Dorsal Striatum / Biodistribution of radioactivity in brain region, Remaining Brain / Biodistribution of radioactivity, Blood / Biodistribution of radioactivity, Bone / Biodistribution of radioactivity, Heart / Biodistribution of radioactivity, Kidney / Biodistribution of radioactivity, Lung / Biodistribution of radioactivity, Muscle / Biodistribution of radioactivity, Brain: mean ± SD; for Biodistribution of radioactivity, Brain: total brain

1-(4-(3,4-Dihydroquinolin-1(2H)-yl)piperidin-1-yl)-2-(2-(2-[^18F]fluoroethoxy)-4-((1-(methylsulfonyl)piperidin-4-yl)oxy)phenyl)ethanone [[^18F]3]
brain uptake across all time points (15-120 min): ≤ 0.05 ± 0.01 % ID/g | Biodistribution of radioactivity in brain region, Amygdala (15 min): 0.05 ± 0.01 %ID/g | Biodistribution of radioactivity in brain region, Basal Hypothalamus (15 min): 0.03 ± 0.01 %ID/g | Biodistribution of radioactivity in brain region, Cerebellum (15 min): 0.02 ± 0.01 %ID/g | Biodistribution of radioactivity in brain region, Dorsal Striatum (15 min): 0.02 ± 0.01 %ID/g | Biodistribution of radioactivity in brain region, Remaining Brain (15 min): 0.02 ± 0.01 %ID/g | Biodistribution of radioactivity, Blood (15 min): 0.07 ± 0.04 %ID/g | Biodistribution of radioactivity, Bone (15 min): 0.05±0.01 %ID/g | Biodistribution of radioactivity, Heart (15 min): 0.17 ± 0.09 %ID/g | Biodistribution of radioactivity, Kidney (15 min): 0.27±0.11 %ID/g | Biodistribution of radioactivity, Lung (15 min): 0.39 ± 0.3 %ID/g | Biodistribution of radioactivity, Muscle (15 min): 0.07 ± 0.01 %ID/g | Biodistribution of radioactivity, Brain (15 min): 0.02 ± 0.01 %ID/g | Biodistribution of radioactivity in brain region, Amygdala (30 min): 0.10 ± 0.03 %ID/g | Biodistribution of radioactivity in brain region, Basal Hypothalamus (30 min): 0.03 ± 0.01 %ID/g | Biodistribution of radioactivity in brain region, Cerebellum (30 min): 0.05 ± 0.04 %ID/g | Biodistribution of radioactivity in brain region, Dorsal Striatum (30 min): 0.03 ± 0.01 %ID/g | Biodistribution of radioactivity in brain region, Remaining Brain (30 min): 0.02 ± 0.01 %ID/g | Biodistribution of radioactivity, Blood (30 min): 0.06 ± 0.01 %ID/g | Biodistribution of radioactivity, Bone (30 min): 0.05 ± 0.01 %ID/g | Biodistribution of radioactivity, Heart (30 min): 0.09 ± 0.02 %ID/g | Biodistribution of radioactivity, Kidney (30 min): 0.15 ± 0.04 %ID/g | Biodistribution of radioactivity, Lung (30 min): 0.1 ± 0.03 %ID/g | Biodistribution of radioactivity, Muscle (30 min): 0.06 ± 0.01 %ID/g | Biodistribution of radioactivity, Brain (30 min): 0.02 ± 0.01 %ID/g | Biodistribution of radioactivity in brain region, Amygdala (60 min): 0.11 ± 0.07 %ID/g | Biodistribution of radioactivity in brain region, Basal Hypothalamus (60 min): 0.06 ± 0.01 %ID/g | Biodistribution of radioactivity in brain region, Cerebellum (60 min): 0.02 ± 0.01 %ID/g | Biodistribution of radioactivity in brain region, Dorsal Striatum (60 min): 0.03 ± 0.01 %ID/g | Biodistribution of radioactivity in brain region, Remaining Brain (60 min): 0.02 ± 0.01 %ID/g | Biodistribution of radioactivity, Blood (60 min): 0.04 ± 0.02 %ID/g | Biodistribution of radioactivity, Bone (60 min): 0.03 ± 0.01 %ID/g | Biodistribution of radioactivity, Heart (60 min): 0.07 ± 0.02 %ID/g | Biodistribution of radioactivity, Kidney (60 min): 0.08 ± 0.02 %ID/g | Biodistribution of radioactivity, Lung (60 min): 0.1 ± 0.03 %ID/g | Biodistribution of radioactivity, Muscle (60 min): 0.03 ± 0.01 %ID/g | Biodistribution of radioactivity, Brain (60 min): 0.02 ± 0.01 %ID/g | Biodistribution of radioactivity in brain region, Amygdala (120 min): 0.13 ± 0.02 %ID/g | Biodistribution of radioactivity in brain region, Basal Hypothalamus (120 min): 0.11 ± 0.04 %ID/g | Biodistribution of radioactivity in brain region, Cerebellum (120 min): 0.04 ± 0.03 %ID/g | Biodistribution of radioactivity in brain region, Dorsal Striatum (120 min): 0.05 ± 0.03 %ID/g | Biodistribution of radioactivity in brain region, Remaining Brain (120 min): 0.03 ± 0.03 %ID/g | Biodistribution of radioactivity, Blood (120 min): 0.09 ± 0.04 %ID/g | Biodistribution of radioactivity, Bone (120 min): 0.07 ± 0.04 %ID/g | Biodistribution of radioactivity, Heart (120 min): 0.08 ± 0.02 %ID/g | Biodistribution of radioactivity, Kidney (120 min): 0.10 ± 0.02 %ID/g | Biodistribution of radioactivity, Lung (120 min): 0.19 ± 0.15 %ID/g | Biodistribution of radioactivity, Muscle (120 min): 0.07 ± 0.04 %ID/g | Biodistribution of radioactivity, Brain (120 min): 0.04 ± 0.03 %ID/g

Where two headings read alike, the source gives them in different places.
